# Test results from PubChem BioAssay AID602274 (Sanford-Burnham Center for Chemical Genomics, 2012).
# The list shows a part of the results, in another mix than the full data. Active and inactive are the calls of the source. Rule as the data show it: active = survival enhancement above about 18%; inactive = the rest.
# Assay: compounds raising survival of dissociated human iPSCs – cell-based, ATPlite luminescence, primary screen (AID 602274);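 also: cells exposed to compounds for 16 hours before the ATP read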
# Details: hiPSC single-cell survival, at 20 µM, active compounds read high, 100% = ROCK inhibitor wells, 0% = DMSO
row,Structure (SMILES),survival enhancement
1,COc1ccc(C(=O)NCC2(N3CCCCC3)CCCCC2)c(OC)c1OC,inactive: 2%
2,CC(C)(C)OC(=O)N1CCC(N(C(=O)c2ccccc2)c2ccc(F)cc2)CC1,inactive: 0%
3,COc1ccc(C(=O)NCC2(N3CCCCC3)CCCCC2)cc1,inactive: -0.4%
4,CCCCn1nnnc1C(c1cccs1)N1CCC(n2c(=O)[nH]c3ccccc32)CC1 (configuration not stated),inactive: -0.8%
5,CCCCn1nnnc1C(CC)N1CCC(n2c(=O)[nH]c3ccccc32)CC1 (configuration not stated),inactive: 1.9%
6,O=C(NCC1(N2CCCCC2)CCCCC1)c1cccs1,inactive: -0.5%
7,O=C(NCC1(N2CCCCC2)CCCCC1)c1ccc(=O)[nH]c1,inactive: 0.4%
8,COc1cc(C(=O)NCC2(N(C)C)CCCCC2)ccc1OC(F)F,inactive: -0.4%
9,CCOC(=O)N1CCC(Nc2cccc(C)c2)CC1,inactive: 0.4%
10,O=c1[nH]c2ccccc2n1C1CCN(C(c2cccc3ccccc23)c2nnnn2C2CCCC2)CC1 (configuration not stated),inactive: -0.8%
11,O=c1[nH]c2ccccc2n1C1CCN(C(c2ccccc2)c2nnnn2C2CCCCC2)CC1 (configuration not stated),inactive: 0.5%
12,CCOC(=O)N1CCC(Nc2ccc(F)cc2)CC1,inactive: 1%
13,COc1ccc(NC2CCN(CCc3ccccc3)CC2)c(OC)c1,inactive: -1.5%
14,O=C(NCC1(N2CCCCC2)CCCCC1)c1ccc(F)cc1,inactive: -0.3%
15,CCCCOc1ccc(C(=O)NCC2(N3CCOCC3)CCCCC2)cc1,inactive: -0.2%
16,CCCCn1nnnc1C(c1cc2ccccc2o1)N1CCC(n2c(=O)[nH]c3ccccc32)CC1 (configuration not stated),inactive: -1.8%
17,O=P1(N(CCCl)CCCl)SCCCS1,inactive: 3%
18,O=C1CCN(Cc2ccccc2)CC1,inactive: 2.7%
19,CC(C)(C)n1nnnc1C(c1ccccc1)N1CCC(n2c(=O)[nH]c3ccccc32)CC1 (configuration not stated),inactive: 0.3%
20,CCOc1ccc(C)cc1CN(CCCl)CCCl,inactive: 0.2%
21,O=C(NCC1(N2CCOCC2)CCCCC1)c1cc(=O)[nH]c2ccccc12,inactive: -0.2%
22,COc1cc(C(=O)NCC2(N3CCCCC3)CCCCC2)ccc1OC(F)F,inactive: -0.1%
23,CCCCn1nnnc1C(c1cccc2ccccc12)N1CCC(n2c(=O)[nH]c3ccccc32)CC1 (configuration not stated),inactive: 1.2%
24,COc1ccc(NC2CCN(C(=O)OC(C)(C)C)CC2)cc1,inactive: 2.6%

row,Structure (SMILES),survival enhancement
1,CC(C)c1ccc(C(=O)NCC2(N3CCOCC3)CCCCC2)cc1,inactive: 0.6%
2,CN1CCN(CCOC(=O)C(O)(c2ccccc2)c2ccccc2)CC1,inactive: 2.6%
3,O=C(NCC1(N2CCCCC2)CCCCC1)c1cccc(C(F)(F)F)c1,inactive: -0.5%
4,N#CC1(Nc2ccccc2)CCN(CCc2ccccc2)CC1,inactive: 3.2%
5,O=c1[nH]c2ccccc2n1C1CCN(C(c2ccccc2OC(F)(F)F)c2nnnn2C2CCCC2)CC1 (configuration not stated),inactive: 1.1%
6,CCN1CCC(Nc2ccc(Cl)cc2)CC1,inactive: -0.1%
7,O=C(NCC1(N2CCCCC2)CCCCC1)c1cccc([N+](=O)[O-])c1,inactive: 1.6%
8,CSc1ccc(C(=O)NCC2(N3CCOCC3)CCCCC2)cc1,inactive: 0%
9,O=C(NCC1(N2CCCCC2)CCCCC1)c1ccc(OC(F)F)cc1,inactive: 0.2%
10,CC(C)(C)n1nnnc1C(c1ccccc1OC(F)(F)F)N1CCC(n2c(=O)[nH]c3ccccc32)CC1 (configuration not stated),inactive: 4.8%
11,COc1ccc(C(c2nnnn2C2CCCC2)N2CCC(n3c(=O)[nH]c4ccccc43)CC2)cc1 (configuration not stated),inactive: -0.7%
12,CCCOc1ccc(C(=O)NCC2(N(C)C)CCCCC2)cc1OC,inactive: -0.3%
13,Cc1ccc(C(=O)NCC2(N(C)C)CCCCC2)o1,inactive: 3.3%
14,O=C(NCC1(N2CCCCC2)CCCCC1)c1cncc(Br)c1,inactive: -0.5%
15,CN1CCC(Nc2cccc(F)c2)CC1,inactive: -0.5%
16,O=C(NCC1(N2CCOCC2)CCCCC1)c1cc(F)c(F)cc1Cl,inactive: 0.4%
17,CCC(c1nnnn1C(C)(C)C)N1CCC(n2c(=O)[nH]c3ccccc32)CC1 (configuration not stated),inactive: -0.8%
18,COc1cc(OC)c(C(=O)NCC2(N(C)C)CCCCC2)cc1OC,inactive: 1.7%
19,CCCCn1nnnc1C(c1ccnc2ccccc12)N1CCC(n2c(=O)[nH]c3ccccc32)CC1 (configuration not stated),inactive: 0.3%
20,CCCCn1nnnc1C(c1ccccc1OC(F)(F)F)N1CCC(n2c(=O)[nH]c3ccccc32)CC1 (configuration not stated),inactive: 1.3%
21,CC(C)c1ccc(NC2CCN(C(=O)OC(C)(C)C)CC2)cc1,inactive: 0.3%
22,CN(C)c1cccc(C(=O)NCC2(N3CCCCC3)CCCCC2)c1,inactive: 0.2%
23,COc1ccc(CN(CCCl)CCCl)cc1Cl,inactive: 0.9%
